In patent US8067447B2, “Modulators of glucocorticoid receptor, AP-1, and/or NF-κB activity and use thereof” (Bristol-Myers Squibb Company, priority 2006, dated 2011):

Molecular target: T1, human glucocorticoid receptor (Homo sapiens, UniProt P04150)
T1 construct: purified human recombinant full-length glucocorticoid receptor (2 nM); purchased Invitrogen Part #2893
T1 sequence (P04150 1-777): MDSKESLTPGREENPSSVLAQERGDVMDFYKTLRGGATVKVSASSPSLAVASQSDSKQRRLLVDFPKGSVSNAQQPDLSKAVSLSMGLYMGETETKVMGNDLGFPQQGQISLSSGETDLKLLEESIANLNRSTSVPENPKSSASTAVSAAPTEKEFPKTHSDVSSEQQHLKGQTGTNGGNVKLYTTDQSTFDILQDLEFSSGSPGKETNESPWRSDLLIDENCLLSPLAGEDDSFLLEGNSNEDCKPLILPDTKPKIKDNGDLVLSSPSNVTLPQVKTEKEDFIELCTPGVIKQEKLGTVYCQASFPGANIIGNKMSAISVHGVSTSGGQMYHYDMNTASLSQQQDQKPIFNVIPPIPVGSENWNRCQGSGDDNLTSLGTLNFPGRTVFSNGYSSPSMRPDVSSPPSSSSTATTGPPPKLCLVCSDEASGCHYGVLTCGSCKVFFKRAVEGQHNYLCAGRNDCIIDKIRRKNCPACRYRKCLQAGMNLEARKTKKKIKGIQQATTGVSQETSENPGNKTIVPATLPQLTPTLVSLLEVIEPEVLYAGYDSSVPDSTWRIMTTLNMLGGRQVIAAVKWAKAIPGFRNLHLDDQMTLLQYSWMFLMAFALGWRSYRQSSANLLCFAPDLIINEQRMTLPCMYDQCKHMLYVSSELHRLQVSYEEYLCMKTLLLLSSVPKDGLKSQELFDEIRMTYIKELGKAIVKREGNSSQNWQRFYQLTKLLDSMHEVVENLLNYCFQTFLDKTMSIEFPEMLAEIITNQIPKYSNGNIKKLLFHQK
Test: Glucocorticoid Receptor Binding Assay (I), fluorescence polarization competitor kit (Fluormone GS Red)
Settings: purified human recombinant full-length GR 2 nM, 1 nM Fluormone GS Red, FP
Experimental: Briefly, purified human recombinant full-length glucocorticoid receptor (2 nM) was mixed with fluorescently labeled glucocorticoid (1 nM Fluormone GS Red) in the presence or absence of test compound. After two hour incubation at room temperature in the dark, the fluorescence polarization (FP) of the samples was measured. […] Test compounds were analyzed in the concentration range from 8.5E-05 μM to 5 μM.

Ki	SMILES
14 nM	Cc1csc(NC(=O)C(C)(C)C(c2ccccc2)c2ccc3c(cnn3-c3ccc(F)cc3)c2)n1 (stereo not drawn) [Example 12, 3-(1-(4-fluorophenyl)-1H-indazol-5-yl)-2,2-dimethyl-N-(4-methylthiazol-2-yl)-3-phenylpropan-amide]
7.5 nM	CC(C)CC(c1ccc2c(cnn2-c2ccc(F)cc2)c1)C(C)(C)C(=O)Nc1nncs1 (stereo not drawn) [Example 34, 3-(1-(4-Fluorophenyl)-1H-indazol-5-yl)-2,2,5-trimethyl-N-(1,3,4-thiadiazol-2-yl)hexanamide]
12 nM	CC(C)(C(=O)Nc1nccs1)C(c1ccncc1)c1ccc2c(cnn2-c2ccc(F)cc2)c1 (stereo not drawn) [Example 36, 3-(1-(4-Fluorophenyl)-1H-indazol-5-yl)-2,2-dimethyl-3-(pyridin-4-yl)-N-(thiazol-2-yl)propanamide]
10 nM	CC(C)n1ncc2cc(C(c3ccccc3)C(C)(C)C(=O)Nc3nncs3)ccc21 (stereo not drawn) [Example 63, 3-(1-isopropyl-1H-indazol-5-yl)-2,2-dimethyl-3-phenyl-N-(1,3,4-thiadiazol-2-yl)propanamide]
12 nM	CC(C)(C(=O)Nc1nncs1)C(c1ccccc1)c1ccc2c(cnn2C2CCCCCC2)c1 (stereo not drawn) [Example 78, 3-(1-cycloheptyl-1H-indazol-5-yl)-2,2-dimethyl-3-phenyl-N-(1,3,4-thiadiazol-2-yl)propanamide]

Molecular target: T2, human full-length glucocorticoid receptor (Homo sapiens, UniProt P04150)
T2 construct: a cell lysate containing recombinantly expressed human full-length glucocorticoid receptor; purchased PanVera Co., Madison, Wis; P2816
T2 sequence (P04150 1-777): T1 sequence (P04150 1-777)
Test: Glucocorticoid Receptor Binding Assay (II), fluorescence polarization competitor kit (Fluormone GS1)
Settings: cell lysate with recombinant human full-length GR, 1 nM Fluormone GS1, FP
Experimental: In order to measure the binding of compounds on the glucocorticoid receptor a commercially available kit was used (Glucocorticoid receptor competitor assay kit, PanVera Co., Madison, Wis., P2816). Briefly, a cell lysate containing recombinantly expressed human full-length glucocorticoid receptor was mixed with a fluorescently labeled glucocorticoid (1 nM Fluormone GS1) in the presence or absence of test compound. After one hour at room temperature, the fluorescence polarization (FP) of the samples were measured. […] Test molecules were analyzed in the concentration range from 2.4 nM to 40 microMolar.

Ki	SMILES
44 nM	CC(C(=O)Nc1nncs1)C(c1ccccc1)c1ccc2c(cnn2-c2ccc(F)cc2)c1 (single isomer, unassigned) [Example 141-isomerA, 3-(1-(4-Fluorophenyl)-1H-indazol-5-yl)-2-methyl-3-phenyl-N-(1,3,4-thiadiazol-2-yl)propanamide]
0.59 nM	CC(C(=O)Nc1nncs1)C(c1ccccc1)c1ccc2c(cnn2-c2ccc(F)cc2)c1 (single isomer, unassigned) [Example 141-isomerB, 3-(1-(4-Fluorophenyl)-1H-indazol-5-yl)-2-methyl-3-phenyl-N-(1,3,4-thiadiazol-2-yl)propanamide]
0.48 nM	CC(C(=O)Nc1nncs1)C(c1ccccc1)c1ccc2c(cnn2-c2ccc(F)cc2)c1 (single isomer, unassigned) [Example 141-isomerC, 3-(1-(4-Fluorophenyl)-1H-indazol-5-yl)-2-methyl-3-phenyl-N-(1,3,4-thiadiazol-2-yl)propanamide]
2.4 nM	CC(C(=O)Nc1nncs1)C(c1ccccc1)c1ccc2c(cnn2-c2ccc(F)cc2)c1 (single isomer, unassigned) [Example 141-isomerD, 3-(1-(4-Fluorophenyl)-1H-indazol-5-yl)-2-methyl-3-phenyl-N-(1,3,4-thiadiazol-2-yl)propanamide]
